IC50 data for four molecules are collected here from US8470816B2, “Nitrogen-containing heterocyclic compound and use thereof” (Takeda Pharmaceutical Company Limited, priority 2007, dated 2013).

By UniProt entry, the sequences of proteins in these tests, tags left out.
UniProt P21452, whole entry, looked up: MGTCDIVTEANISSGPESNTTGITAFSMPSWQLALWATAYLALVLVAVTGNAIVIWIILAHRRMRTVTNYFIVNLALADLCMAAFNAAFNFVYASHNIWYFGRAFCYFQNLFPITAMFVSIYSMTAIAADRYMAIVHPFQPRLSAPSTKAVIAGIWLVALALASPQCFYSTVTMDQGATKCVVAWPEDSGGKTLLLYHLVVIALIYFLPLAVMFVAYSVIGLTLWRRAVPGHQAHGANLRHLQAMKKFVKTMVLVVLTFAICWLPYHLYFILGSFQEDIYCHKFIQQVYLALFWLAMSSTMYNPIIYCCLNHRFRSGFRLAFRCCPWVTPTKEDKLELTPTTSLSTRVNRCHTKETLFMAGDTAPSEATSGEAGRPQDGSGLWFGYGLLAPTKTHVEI
UniProt P25103, whole entry, looked up: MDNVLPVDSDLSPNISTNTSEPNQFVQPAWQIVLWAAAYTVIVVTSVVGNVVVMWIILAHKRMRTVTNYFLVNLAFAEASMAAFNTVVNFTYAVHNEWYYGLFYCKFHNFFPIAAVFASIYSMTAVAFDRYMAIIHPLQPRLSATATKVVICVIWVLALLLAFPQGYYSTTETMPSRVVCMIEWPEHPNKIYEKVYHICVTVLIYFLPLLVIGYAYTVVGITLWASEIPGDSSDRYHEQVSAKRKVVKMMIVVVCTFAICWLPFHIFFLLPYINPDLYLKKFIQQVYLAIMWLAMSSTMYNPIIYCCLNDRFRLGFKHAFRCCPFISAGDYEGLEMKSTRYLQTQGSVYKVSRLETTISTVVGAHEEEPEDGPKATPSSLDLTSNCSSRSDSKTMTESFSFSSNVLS

The structures appear in SMILES notation.

For assay [1], the target named is human NK2 (hNK2) receptor (Homo sapiens (Human), UniProt P21452). Briefly: Human NK2 receptor binding assay: radioligand ([125I]-NK-A) binding inhibition using membrane fraction of CHO cells expressing hNK2 receptor. As to conditions: read-out: hNK2 IC50, CHO cell membrane fraction.
The target of the next assay is human NK1 receptor (Homo sapiens (Human), UniProt P25103). In words: Human NK1 receptor binding assay: radioligand (125I-Bolton-Hunter-SP) binding inhibition using receptor from human lymphoblast cells (IM-9). As to conditions: read-out: hNK1 IC50, IM-9 cell receptor.

As for `CC(=O)N1CCC(C(=O)N2CC[C@@H](N(C)C(=O)c3ccc(Br)cn3)[C@H](c3ccc(Cl)c(Cl)c3)C2)CC1`, the IC50 in assay [1] is 0.00082 µM; at human NK1 receptor it was 0.52 µM.
As to `CN(C(=O)c1ccc(C(F)(F)F)cc1)[C@@H]1CCN(C(=O)C2CCN(C(=O)CO)CC2)C[C@H]1c1ccc(Cl)c(Cl)c1.O` (hydrate or solvate), the half-maximal inhibitory concentration (IC50) on human NK1 receptor was 0.14 µM.
In the case of `CN(C(=O)c1ccc(Cl)cc1)[C@@H]1CCN(C(=O)C2CCN(C(=O)CO)CC2)C[C@H]1c1ccc(Cl)c(Cl)c1.O` (hydrate or solvate), the IC50 on human NK1 receptor was 0.079 µM.
Regarding `CN(C(=O)c1ccc(Br)cc1)[C@@H]1CCN(C(=O)C2CCN(C(=O)CO)CC2)C[C@H]1c1ccc(Cl)c(Cl)c1.O` (hydrate or solvate), the values for the concentration for half-maximal inhibition (IC50) (in assay [1]; at human NK1 receptor) were 0.00024 µM and 0.084 µM, respectively.

What is called IC50 is the point on the concentration scale where inhibition reaches its midpoint.
